Target: Acetylcholinesterase (Homo sapiens, UniProt P22303)
Assay: ASSAY_NAME: ChEMBL_1801925 (CHEMBL4274217) DESCRIPTION: Inhibition of AChE in human erythrocytes using acetylthiocholine as substrate measured for 1 min

Amino acid sequences for entries named in this document (tags omitted). Residues count along the entry.
UniProt P22303, 32-614 limits assumed: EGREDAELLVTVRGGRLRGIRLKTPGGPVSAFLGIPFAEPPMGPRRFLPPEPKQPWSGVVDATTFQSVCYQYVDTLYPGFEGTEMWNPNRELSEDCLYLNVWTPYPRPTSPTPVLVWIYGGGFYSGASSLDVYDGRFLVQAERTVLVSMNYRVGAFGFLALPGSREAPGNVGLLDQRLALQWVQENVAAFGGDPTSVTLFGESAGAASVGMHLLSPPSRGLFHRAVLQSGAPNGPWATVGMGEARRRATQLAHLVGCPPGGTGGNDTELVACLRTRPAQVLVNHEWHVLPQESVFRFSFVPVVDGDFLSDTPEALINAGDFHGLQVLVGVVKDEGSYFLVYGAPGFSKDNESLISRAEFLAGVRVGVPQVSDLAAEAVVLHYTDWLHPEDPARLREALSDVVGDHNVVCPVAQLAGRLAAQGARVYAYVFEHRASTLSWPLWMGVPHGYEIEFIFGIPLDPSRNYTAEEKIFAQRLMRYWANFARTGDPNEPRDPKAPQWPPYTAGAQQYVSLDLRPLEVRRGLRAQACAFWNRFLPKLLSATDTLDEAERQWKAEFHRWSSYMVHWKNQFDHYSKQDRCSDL

Point of comparison: CNCc1cc(N)ccc1O, IC50 334 µM. Against it:
- CN(C)Cc1cc(N)ccc1O — 4.6-fold higher, 1540 µM
- CCCCCCN(C)Cc1cc(N)ccc1O — 3.1-fold higher, 1050 µM
- Nc1ccc(O)c(Cn2cccn2)c1 — 2.5-fold higher, 844 µM
- CCCN(CCC)Cc1cc(N)ccc1O — 2.5-fold lower, 131 µM
- CCN(C)Cc1cc(N)ccc1O — 2.9-fold higher, 965 µM
- CCCN(C)Cc1cc(N)ccc1O — 3.4-fold higher, 1150 µM
- CCCCN(C)Cc1cc(N)ccc1O — 2.7-fold lower, 125 µM
- Nc1ccc(O)c(CN2CCOCC2)c1 — within 1.5-fold, 271 µM
- CCCCCN(C)Cc1cc(N)ccc1O — 2.4-fold higher, 805 µM
- Nc1ccc(O)c(CN2CCCCC2)c1 — within 1.5-fold, 456 µM
- Nc1ccc(O)c(Cn2ccnc2)c1 — within 1.5-fold, 482 µM
